# Experiments:
# healthy subjects = assay: Study 2-Part 1: safety and tolerability, multiple doses, healthy subjects; format: in vivo, human; conditions: 24 mg BID dose group, 14 days
# [1] = subjects with RA on stable methotrexate
compound,measurement,setting,value
"CC[C@@H]1CN(C(=O)NCC(F)(F)F)C[C@@H]1c1cnc2cnc3[nH]ccc3n12 [Compound 1, (3S,4R)-3-ethyl-4-(3H-imidazo[1,2-a]pyrrolo[2,3-e]pyrazin-8-yl)-N-(2,2,2-trifluoroethyl)pyrrolidine-1-carboxamide]",overall incidence of TEAEs,healthy subjects,50%
same,Pharmacokinetic interaction with methotrexate,[1],no pharmacokinetic interaction between methotrexate and Compound 1

# From patent US10730883B2 (AbbVie Inc., priority 2015, dated 2020)
